# Measurements: patent US10858365B2, “Triazolo-pyrimidine compounds and uses thereof” (Dizal (Jiangsu) Pharmaceutical Co., Ltd., priority 2018, dated 2020)
# Sequences of proteins named here, by UniProt entry; tags and fusion partners are left off.
# UniProt Q60613, whole entry: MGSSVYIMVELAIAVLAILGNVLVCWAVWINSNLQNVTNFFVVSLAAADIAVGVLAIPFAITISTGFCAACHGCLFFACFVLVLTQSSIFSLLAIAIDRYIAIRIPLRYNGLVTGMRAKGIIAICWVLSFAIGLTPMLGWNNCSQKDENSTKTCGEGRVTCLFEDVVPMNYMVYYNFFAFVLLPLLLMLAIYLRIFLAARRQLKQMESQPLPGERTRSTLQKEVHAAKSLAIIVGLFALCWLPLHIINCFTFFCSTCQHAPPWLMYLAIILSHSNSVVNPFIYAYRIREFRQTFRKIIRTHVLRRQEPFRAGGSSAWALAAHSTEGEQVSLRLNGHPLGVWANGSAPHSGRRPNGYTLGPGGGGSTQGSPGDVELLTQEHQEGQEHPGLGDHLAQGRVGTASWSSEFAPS
# Molecular target: mA2a (Mus musculus (Mouse), UniProt Q60613)
# Test: cAMP inhibition assay in mA2a/CHO cells
# Type: cell-based
# Conditions: adenosine stimulation, read-out: cAMP & FLIPR IC50 (nM) mA2a
# Method: hA2a/CHO, hA2b/CHO and mA2a/CHO (Genscript) were plated at 5×10^3 cells/well into 384-well polystyrene plates at the day of experiment. Compounds were pre-incubated with cells for 30 min at 37° C., 5% CO2. Then […] adenosine was added to the cells and incubated for 30 min at 37° C., 5% CO2. Detection reagent (CISBIO) was added and the plates were incubated for 60 min at room temperature. The signal was captured by Envision.
# FLIPR™ and cAMP inhibition activities of exemplary compounds in different adenosine receptor over-expressing cell lines are shown in Table 4 below.
compound,measurement,value
"Cn1cc(-c2c(-c3ncco3)nc(N)n3nc(Cc4ncccc4OC(F)F)nc23)ccc1=O [Example 71, 5-(5-amino-2-[[3-(difluoromethoxy)pyridin-2-yl]methyl]-7-(1,3-oxazol-2-yl)-[1,2,4]triazolo[1,5-c]pyrimidin-8-yl)-1-methyl-1,2-dihydropyridin-2-one]",IC50,6.4 nM
